Assay: Pharmacokinetics of tigecycline after single oral (gavage) and intravenous dose in 0.9% saline
Details: Mean (n = 4)
[1] = 15 mg/kg IV Gavage (so in the source)

**Q.** Which results are given for Tigecycline?
**A.** AUC/Dose (15 mg/kg 0.9% saline, Gavage): 10.9; Cmax/Dose (15 mg/kg 0.9% saline, Gavage): 10.9; AUC/Dose [1]: 3653; Cmax/Dose [1]: 3014

Reference: patent US20080014256A1, “Oral formulations comprising tigecycline” (priority 2005, published 2008)
